From ChEMBL document CHEMBL1153990, “Exploring the PI3K alpha and gamma binding sites with 2,6-disubstituted isonicotinic derivatives” (Bioorg Med Chem Lett, 2009)

Amino acid sequences for entries named in this document (tags omitted). A change or cut given only in a name is not applied to a line headed by its entry.
UniProt P48736: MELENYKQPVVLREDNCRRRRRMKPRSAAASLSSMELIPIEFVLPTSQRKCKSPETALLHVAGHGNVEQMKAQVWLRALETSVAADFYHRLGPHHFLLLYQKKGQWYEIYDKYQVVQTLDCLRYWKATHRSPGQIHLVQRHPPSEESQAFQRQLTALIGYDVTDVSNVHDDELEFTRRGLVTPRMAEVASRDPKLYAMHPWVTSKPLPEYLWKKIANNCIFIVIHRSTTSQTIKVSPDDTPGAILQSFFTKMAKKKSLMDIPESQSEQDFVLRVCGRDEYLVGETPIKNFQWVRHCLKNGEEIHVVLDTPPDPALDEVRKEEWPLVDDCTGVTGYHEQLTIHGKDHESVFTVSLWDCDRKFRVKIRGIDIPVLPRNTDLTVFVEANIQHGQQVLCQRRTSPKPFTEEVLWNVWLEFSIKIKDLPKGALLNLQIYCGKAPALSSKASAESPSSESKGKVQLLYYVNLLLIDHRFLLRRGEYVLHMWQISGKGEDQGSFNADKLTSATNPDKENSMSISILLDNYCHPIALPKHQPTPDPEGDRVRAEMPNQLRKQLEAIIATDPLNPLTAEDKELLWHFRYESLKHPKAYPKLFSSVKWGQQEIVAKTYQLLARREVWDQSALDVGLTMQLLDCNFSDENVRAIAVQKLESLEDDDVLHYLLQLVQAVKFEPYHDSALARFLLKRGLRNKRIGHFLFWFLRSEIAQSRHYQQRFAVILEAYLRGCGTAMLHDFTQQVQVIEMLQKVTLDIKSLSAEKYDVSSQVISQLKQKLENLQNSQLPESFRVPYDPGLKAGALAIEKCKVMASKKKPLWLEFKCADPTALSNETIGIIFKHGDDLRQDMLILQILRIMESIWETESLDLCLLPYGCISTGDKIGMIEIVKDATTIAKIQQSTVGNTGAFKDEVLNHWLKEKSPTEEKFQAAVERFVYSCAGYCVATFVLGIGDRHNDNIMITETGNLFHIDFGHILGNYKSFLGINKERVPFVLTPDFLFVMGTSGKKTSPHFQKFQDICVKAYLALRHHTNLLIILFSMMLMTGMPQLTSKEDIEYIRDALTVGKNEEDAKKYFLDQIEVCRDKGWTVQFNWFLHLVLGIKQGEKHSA

Target: Phosphatidylinositol 4,5-bisphosphate 3-kinase catalytic subunit gamma isoform (Homo sapiens, UniProt P48736)
Experiment: Inhibition of PI3Kgamma by luminescent kinase glo assay

Structure (SMILES): O=c1cc(N2CCOCC2)oc2c(-c3ccccc3)cccc12 [LY-294002]
- IC50: 1.2 µM
